The record followed here is patent US9688645B2, “Macrocyclic urea and sulfamide derivatives as inhibitors of TAFIa” (SANOFI, priority 2008, dated 2017).

Protein sequences, listed by entry. Tags and fused reporters are not part of them. Residues count along the entry.
UniProt Q96IY4, 115-423: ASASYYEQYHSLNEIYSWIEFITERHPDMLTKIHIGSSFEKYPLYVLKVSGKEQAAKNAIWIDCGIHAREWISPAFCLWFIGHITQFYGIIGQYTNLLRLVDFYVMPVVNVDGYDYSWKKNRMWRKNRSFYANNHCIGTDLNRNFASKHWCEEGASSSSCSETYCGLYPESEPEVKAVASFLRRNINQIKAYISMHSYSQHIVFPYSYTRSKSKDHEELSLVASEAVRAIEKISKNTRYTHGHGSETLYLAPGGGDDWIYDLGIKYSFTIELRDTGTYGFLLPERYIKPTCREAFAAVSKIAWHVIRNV

In the assay the target is TAFIa (Homo sapiens (Human), UniProt Q96IY4). Description: TAFIa inhibition, Actichrome plasma TAFI Activity Kit (American Diagnostica). The class given is biochemical. Particulars: chromogenic read-out at 420 nm, 15 min preincubation at room temperature, pH 7.4, duplicate determination. Here is the method:
The prepared substances were tested for TAFIa inhibition using the Actichrome plasma TAFI Activity Kit from American Diagnostica (Pr. No. 874). This entailed adding 28 μl of assay buffer (20 mM Hepes, 150 mM NaCl, pH 7.4) and 10 μl of TAFIa (American Diagnostica Pr. No. 874TAFIA; 2.5 μg/ml) to 2 μl of 2.5 mM DMSO solution of the substance and incubating in a 96 half-well microtiter plate at room temperature for 15 minutes. The enzyme reaction was started by adding 10 μl of TAFIa developer (prediluted 1:2 with assay buffer). The time course of the reaction was followed at 420 nm in a microtiter plate reader (SpectraMax plus 384; Molecular Devices) for 15 minutes.
The IC50 values were calculated from the averaged values (duplicate determination) of serial dilutions of the substance with the aid of the Softmax Pro software (version 4.8; Molecular Devices).

For orientation: IC50 means the concentration that gives 50% inhibition. Consider `CC(C)[C@H]1COCCCCOC[C@@H](NC(=O)N[C@@H](CCCCN)C(=O)O)C(=O)N1` [Example 6-6, (S)-6-Amino-2-[3-((3S,6R)-3-isopropyl-5-oxo-1,8-dioxa-4-azacyclododec-6-yl)ureido]-hexanoic acid], for which the half-maximal inhibitory concentration (IC50) stood at 53 nM.
